# System: EC
# Experiment: EC proliferation
# Type: cell-based
compound,measurement,value
"Nc1nc(N)c2nc(-c3cccc(O)c3)cnc2n1 [Compound II, 3-(2,4-diaminopteridin-6-yl)phenol]",effect on EC proliferation,strongly inhibited
